Results: patent US9156822B2, “Functionally selective ligands of dopamine D2 receptors” (The University of North Carolina at Chapel Hill, priority 2010, dated 2015)

The chains behind the UniProt entries cited, without tags or fusion partners.
UniProt P14416, whole entry, looked up: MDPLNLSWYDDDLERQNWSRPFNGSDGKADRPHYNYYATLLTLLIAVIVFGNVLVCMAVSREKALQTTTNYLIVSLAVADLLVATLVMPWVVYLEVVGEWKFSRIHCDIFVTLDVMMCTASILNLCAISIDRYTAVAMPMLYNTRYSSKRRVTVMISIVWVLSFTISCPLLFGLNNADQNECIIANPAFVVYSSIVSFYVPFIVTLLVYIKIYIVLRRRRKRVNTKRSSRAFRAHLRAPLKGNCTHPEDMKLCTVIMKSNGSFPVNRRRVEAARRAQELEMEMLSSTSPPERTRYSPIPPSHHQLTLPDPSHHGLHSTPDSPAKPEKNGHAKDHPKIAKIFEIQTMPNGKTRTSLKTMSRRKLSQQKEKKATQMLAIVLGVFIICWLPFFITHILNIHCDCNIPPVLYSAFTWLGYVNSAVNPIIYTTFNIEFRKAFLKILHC

Biological target: D2 receptors (Homo sapiens (Human), UniProt P14416)
Test: D2 β-arrestin recruitment (Tango) assay
Assay type: cell-based
Conditions: normalized to quinpirole (100%)

## O=c1[nH]c2ccc(OCCCCN3CCN(c4cccc(Cl)c4Cl)CC3)cc2[nH]1 [Compound 35]
  β-arrestin (Tango) Emax: 65%
